## Parent scFvs against a spike HR2 peptide, AlphaSeq assay B

Values reported by Li et al. 2023, doi:10.1038/s41467-023-39022-2 (FLAb copy).

Target: peptide PDVDLGDISGINAS, taken from heptad repeat 2 (HR2) of SARS-CoV-2 spike.

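Ab-14 (VH, linker, VL) is the parent of the designed variants that this assay measured; its own sequence was in the pool as ten entries. The scFvs were displayed on barcoded MATa yeast, the peptide on MATalpha yeast. Pairs that bind mate more often; barcode pairs of the diploids are counted by sequencing. The ratio of observed to expected reads was calibrated, replicate by replicate, on BCL2-family standards whose Kd was known from biolayer interferometry. Mating was done six times.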

Affinities are written as log10 Kd with Kd in nM; a lower number is a better binder. "n.d." means that the antibody was in the library but no mating with the target was seen in that replicate; the authors take this as a sign of poor binding, and no number exists. Entries in the file, in the order shown: 14H_Ctrl_10, 14H_Ctrl_7678, 14H_Ctrl_7698, 14H_Ctrl_7718, 14H_Ctrl_7738, 14L_Ctrl_04, 14L_Ctrl_8181, 14L_Ctrl_8201, 14L_Ctrl_8221, 14L_Ctrl_8241.

| antibody | scFv | log10 Kd, replicates | empty controls |
|---|---|---|---|
| Ab-14 | EVQLVETGGGLVQPGGSLRLSCAASGFTLNSYGISWVRQAPGKGPEWVSVIYSDGRRTFYGDSVKGRFTISRDTSTNTVYLQMNSLRVEDTAVYYCAKGRAAGTFDSWGQGTLVTVSSGGGGSGGGGSGGGGSDVVMTQSPESLAVSLGERATISCKSSQSVLYESRNKNSVAWYQQKAGQPPKLLIYWASTRESGVPDRFSGSGSGTDFTLTISSLQAEDAAVYYCQQYHRLPLSFGGGTKVEIK | n.d. / n.d. / n.d. / n.d. / n.d. / 1.88; 1.96 / 1.87 / 2.86 / 1.59 / 2.04 / 1.45; n.d. / n.d. / n.d. / n.d. / n.d. / n.d.; 0.43 / 0.57 / n.d. / n.d. / 0.05 / 0.34; n.d. / n.d. / n.d. / n.d. / n.d. / n.d.; n.d. / n.d. / n.d. / 0.75 / n.d. / n.d.; 1.51 / 2.16 / 0.98 / 2.30 / 1.91 / 1.55; n.d. / n.d. / n.d. / n.d. / n.d. / n.d.; 2.68 / n.d. / n.d. / 2.15 / 1.64 / 3.02; n.d. / n.d. / n.d. / n.d. / n.d. / 1.64 | 0 of 180 |

The authors' rule: three or more of the six replicates give a measured affinity, fewer mean a poor binder. The range of this assay differs from that of the first round, and the authors advise against merging the two. Three control strains display no target. For all scFvs of this assay, 3% of the pairings with them gave a signal, with a median of 2.55 and one signal in twenty below 1.37, so weak values seen in few replicates may be background. For each scFv, signals with the empty controls are counted beside the result. Where one sequence has several entries in the source, the replicates are listed entry by entry, parted by semicolons.